Test results taken from patent publication US11530237B2, “Compositions and methods for treating CNS disorders” (Sage Therapeutics, Inc., priority 2014, dated 2022).

Target: α1β2γ2 GABAA receptors (Homo sapiens (Human), UniProt P14867+P47870)
Experiment: Patch clamp electrophysiology (QPatch) of recombinant α1β2γ2 GABAA receptors in LTK cells
Type: cell-based
Conditions: 10 μM test article, GABA EC20 = 2 μM, read-out: GABA (α1β2γ2) Qpatch in Ltk, % efficacy at 10 μM
Protocol: Cellular electrophysiology is used to measure the pharmacological properties of our GABAA receptor modulators in heterologous cell systems. Each compound is tested for its ability to affect GABA mediated currents at a suhmaximal agonist dose (GABA EC20=2 μM). LTK cells are stably transfected with the α1β2γ2 subunits of the GABA receptor and CHO cells are transiently transfected with the α4β3δ subunits via the Lipofecatamine method. Cells were passaged at a confluence of about 50-80% and then seeded onto 35 mm sterile culture dishes containing 2 ml culture complete medium without antibiotics or antimycotics. Confluent clusters of cells are electrically coupled (Pritchett et al., Science, 1988, 242, 1306-1308). Because responses in distant cells are not adequately voltage clamped and because of uncertainties about the extent of coupling (Verdoom et al., Neuron 1990, 4, 919-928), cells were cultivated at a density that enables the recording of single cells (without visible connections to other cells).
Whole cell currents were measured with HEKA EPC-10 amplifiers using PatchMaster software or by using the high throughput QPatch platform (Sophion). […]
Cells were voltage clamped at a holding potential of −80 mV. […] GABAA receptors α1β2γ2 and α4β3δ% efficacy: “A” 10-100, “B”>100-500, “C”>500; D indicates the data is not available or has not been determined.

With COC[C@@]1(O)CC[C@@]2(C)[C@@H](CC[C@@H]3[C@@H]2CC[C@]2(C)[C@@H](C(=O)Cn4cc(C(=O)N(C)C)cn4)CC[C@@H]32)C1 [Compound 162] the Emax at 10 µM was greater than 500%.
